Test results taken from publication PMC7553530 (Oncoimmunology, 2020).

System: nivolumab
Test: SPR binding to immobilized nivolumab
Parameters: species or system human
Settings: chip validation, 1 μM rhPD-1 injected 3 min at 10 μl/min, 25°C

rhPD-1: recombinant human PD-1 protein injected over the SPR chip for validation
SPR response upon rhPD-1 injection over nivolumab: 3740 RU
